Earlier results, collected in article PMC2866165 (Nuclear medicine and biology, 2010).

Test system: PDE10A
Details: read-out: IC50 for PDE10A

For `COc1ccc(Cc2nccc3cc(OC)c(OC)cc23)cc1OC` [Papaverine, 1-(3,4-dimethoxybenzyl)-6,7-dimethoxyisoquinoline], the IC50 is listed as 36 nM.
